Like-named read-outs stand apart in the source and are kept apart here.
Key:
[1] = molecular target: T1, cloned human kappa receptor (Homo sapiens, UniProt P41145); conditions: for % @ 1 μM, diprenorphine: at 1 μM compound
[2] = molecular target: T1, cloned human kappa receptor; assay: [3H]U69593 (agonist) binding to the cloned human kappa receptor
[3] = test system: formalin-induced flinching; assay: Formalin-induced nociception, late (tonic) phase flinching; assay type: in vivo, male Sprague-Dawley rats
[4] = read-out: Ki (nM) [3H]-Diprenorphin κ, Table IIIA
[5] = read-out: Ki (nM) k [3H] Diprenorphin, Table II
[6] = read-out: Ki (nM) k (mg) [3H]U69,593, Table II
[7] = read-out: Ki(nM) diprenorphine, [3H]diprenorphine binding, compounds of Formula IV
[8] = read-out: Ki(nM) U-69593, [3H]U69593 binding, compounds of Formula IV
[9] = read-out: Ki(nM) [3H]-Diprenorphin, Table IVA
[10] = late phase formalin-induced flinching

Protein sequences, listed by entry. Tags and fused reporters are not part of them. Lines headed by an entry give the natural chain unless they say otherwise; changes in a name come on top.
UniProt P41145: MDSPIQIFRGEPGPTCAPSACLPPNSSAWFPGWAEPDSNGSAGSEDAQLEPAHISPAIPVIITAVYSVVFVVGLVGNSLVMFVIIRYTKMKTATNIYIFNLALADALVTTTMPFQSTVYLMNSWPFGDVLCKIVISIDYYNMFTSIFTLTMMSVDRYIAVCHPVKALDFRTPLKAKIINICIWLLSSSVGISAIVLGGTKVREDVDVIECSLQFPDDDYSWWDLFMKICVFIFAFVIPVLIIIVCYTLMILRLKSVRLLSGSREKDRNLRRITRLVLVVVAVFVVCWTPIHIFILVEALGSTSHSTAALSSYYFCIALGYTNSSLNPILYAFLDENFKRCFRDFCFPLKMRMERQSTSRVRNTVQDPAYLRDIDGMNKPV

In the case of `CN(C(=O)Cc1ccc(F)cc1)[C@H](CN1CCCC1)c1ccccc1`, the Ki [1, 4] is reported as 1.1 nM.

For `COc1ccc2c(c1)[C@H](N(C)C(=O)Cc1ccc(Cl)c(Cl)c1)[C@@H](N1CCCC1)CC2` (racemic), the Ki [1, 5] was 4.7 nM and the Ki [2, 6] was 0.8 nM.

Compound `CN(C(=O)Cc1ccc(Cl)c(Cl)c1)[C@H]1c2cc(O)ccc2CC[C@@H]1N1CCCC1` (racemic) has a Ki [1, 5] of 0.6 nM and a Ki [2, 6] of 0.18 nM.

Work on `CN(C(=O)Cc1cccc(C(F)(F)F)c1[N+](=O)[O-])[C@@H]1CCCC[C@H]1N1CCCC1` (racemic) yielded a Ki [1, 7] of 5.65 nM and a Ki [2, 8] of 1.4 nM.

`CNS(=O)(=O)c1cccc(CC(=O)N(C)[C@@H]2CCCC[C@H]2N2CCCC2)c1OC.Cl` (racemic) was tested, and the Ki [1, 9] was 294 nM.

In the case of `COc1cccc(C(CN2CCCC2)N(C)C(=O)Cc2ccc(C(F)(F)F)cc2)c1` (stereo not drawn), the Ki [1, 4] is reported as 0.64 nM.

With `CN(C(=O)Cc1cc(Cl)c(Cl)cc1N)[C@@H]1CCCC[C@H]1N1CCCC1.Cl` (racemic) the “Late Phase Formalin A50” value [3, 10] was 72.0 mg.

For `CN(C(=O)Cc1ccc(C(F)(F)F)cc1)C(CN1CCCC1)c1cccc(O)c1` (stereo not drawn), the Ki [1, 4] was 0.59 nM.

Work on `CN(C(=O)Cc1ccc(C(F)(F)F)cc1NCC(=O)O)C1CCCCC1N1CCCC1` (racemic) yielded a Ki [1, 7] of 43.5 nM and a Ki [2, 8] of 2.35 nM.

`CN(C(=O)Cc1cc(Cl)c(Cl)cc1[N+](=O)[O-])[C@@H]1CCCC[C@H]1N1CCCC1.Cl` (racemic) was tested, and the “Late Phase Formalin A50” value [3, 10] was 3.5 mg.

In the case of `CN(C(=O)Cc1cc(Cl)c(Cl)cc1[N+](=O)[O-])[C@H]1c2ccccc2C[C@@H]1N1CCCC1` (racemic), the Ki [1, 5] is reported as 5.7 nM and the Ki [2, 6] is reported as 0.74 nM.

For `CN(C(=O)Cc1ccc(S(C)(=O)=O)cc1)[C@H]1c2ccccc2C[C@@H]1N1CCCC1` (racemic), the Ki [2, 6] was 29 nM.

With `CN(C(=O)Cc1cc(Cl)c(Cl)cc1N)[C@@H]1CCCC[C@H]1N1CCCC1` (racemic) the Ki [1, 7] was 10.6 nM and the Ki [2, 8] was 1.7 nM.

`CN(C(=O)Cc1ccc(C(F)(F)F)cc1NS(C)(=O)=O)[C@@H]1CCCC[C@H]1N1CCCC1` (racemic) showed a Ki [2, 8] of 216 nM.

`CN(C(=O)C(c1ccccc1)c1ccccc1)[C@H](CN1CC[C@H](O)C1)c1ccccc1` [III-43, reference compound] was tested, and the Ki ([1]; read-out: Ki (nM) k [3H]Diprenorphin, Table III) was 0.52 nM and the Ki ([2]; read-out: Ki (nM) k [3H]U69.593, Table III) was 0.34 nM.

In the case of `CN(C(=O)Cc1cccc(C(F)(F)F)c1)[C@@H]1CCCC[C@H]1N1CCCC1` (racemic), the Ki [1, 7] is reported as 192 nM and the Ki [2, 8] is reported as 11.2 nM.

Work on `CN(C(=O)Cc1ccccc1NCC(=O)O)C1CCCCC1N1CCCC1` (racemic) yielded a Ki [2, 8] of 866 nM.

In the case of `CN(C(=O)Cc1ccc(S(C)(=O)=O)cc1)[C@@H]1CCCC[C@H]1N1CCCC1.Cl` (racemic), the Ki [2, 8] is reported as 96 nM.

“2-(3,4-Dichlorocinnamyl)-N-methyl-N-[(1S)-1-phenyl-2-(1-Pyrrolidinyl)-ethyl]acetamide hydrochloride” gave a Ki [1, 4] of 362 nM.

`CN(C(=O)Cc1ccccc1N)[C@@H]1CCCC[C@H]1N1CCCC1` (racemic) was tested, and the Ki [1, 7] was 1030 nM and the Ki [2, 8] was 433 nM.

With `CN(C(=O)Cc1ccc(C(F)(F)F)cc1)[C@H](CN1CC[C@H](O)C1)c1ccccc1` the Ki [1, 4] was 0.17 nM and the “Late Phase Formalin, % @ 300” value ([3]; Table IIIA) was 97% @ 300.

`CN(C(=O)Cc1ccccc1C(F)(F)F)[C@@H]1CCCC[C@H]1N1CCCC1` (racemic) was tested, and the Ki [2, 8] was 25 nM.

`CN(C(=O)Cc1cccc([N+](=O)[O-])c1)C1c2ccccc2CC1N1CCCC1` (racemic) showed a Ki [1, 5] of 13 nM and a Ki [2, 6] of 1.8 nM.

`CN(C(=O)Cc1ccc(Cl)c(Cl)c1)[C@H]1c2cc([N+](=O)[O-])ccc2CC[C@@H]1N1CCCC1` (racemic) showed a Ki [1, 5] of 9.6 nM and a Ki [2, 6] of 0.7 nM.

In the case of `CN(C(=O)Cc1ccc(C(F)(F)F)cc1N)[C@@H]1CCCC[C@H]1N1CCCC1` (racemic), the Ki [2, 8] is reported as 5.4 nM.

With `CN(C(=O)Cc1ccc(C(F)(F)F)cc1)[C@@H]1CCCC[C@H]1N1CCCC1.Cl` (racemic) the “% @ 1 μM, diprenorphine” value ([1]; [3H]diprenorphine binding) was 77% @ 1 μM.

`CN(C(=O)Cc1ccc(Cl)c(Cl)c1)[C@H]1c2cc(OCC(=O)O)ccc2CC[C@@H]1N1CCCC1` (racemic) was tested, and the Ki [1, 5] was 40 nM and the Ki [2, 6] was 7 nM.

Work on `CN(C(=O)Cc1ccc(N)cc1C(F)(F)F)[C@@H]1CCCC[C@H]1N1CCCC1` (racemic) yielded a Ki [2, 8] of 21 nM.

With `CN(C(=O)Cc1ccc(Cl)c(Cl)c1)[C@H]1c2ccccc2CCC[C@@H]1N1CCCC1` (racemic) the Ki [1, 5] was 8.4 nM and the Ki [2, 6] was 2.8 nM.

For `COc1ccc(CC(=O)N(C)[C@H](CN2CCCC2)c2ccccc2)cc1OC`, the Ki [1, 4] was 2.8 nM.

Compound `CN(C(=O)Cc1cc([N+](=O)[O-])cc(C(F)(F)F)c1)[C@@H]1CCCC[C@H]1N1CCCC1` (racemic) has a Ki [2, 8] of 10.8 nM.

Work on `CN(C(=O)Cc1ccc(C(F)(F)F)cc1[N+](=O)[O-])[C@@H]1CCCC[C@H]1N1CCCC1` (racemic) yielded a Ki [2, 8] of 13.4 nM.

`CN(C(=O)Cc1cc(Cl)c(Cl)cc1NC(=O)/C=C\C(=O)O)[C@H]1CCCC[C@@H]1N1CCCC1` (racemic) was tested, and the Ki [1, 9] was 77 nM.

Work on `CN(C(=O)Cc1ccccc1[N+](=O)[O-])[C@@H]1CCCC[C@H]1N1CCCC1` (racemic) yielded a Ki [1, 7] of 596 nM and a Ki [2, 8] of 100 nM.

Compound “2-(5-Bromo-3-pyridyl)-N-methyl-N-[(1S)-1-phenyl-2-pyrrolidinyl ethyl]acetamide hydrochloride” has a Ki [1, 4] of 0.56 nM.

`CN(C(=O)Cc1ccccc1NS(C)(=O)=O)[C@@H]1CCCC[C@H]1N1CCCC1.Cl` (racemic) gave a Ki [1, 7] of 3180 nM and a Ki [2, 8] of 675 nM.

In the case of `CN(C(=O)Cc1ccc(O)c(O)c1)[C@H](CN1CCCC1)c1ccccc1`, the Ki [1, 4] is reported as 8.8 nM.

Work on `CN(C(=O)Cc1ccc(S(C)(=O)=O)cc1)[C@H]1c2cc([N+](=O)[O-])ccc2CC[C@@H]1N1CCCC1` (racemic) yielded a Ki [2, 6] of 12.8 nM.

For `CN(C(=O)Cc1ccc(Cl)c(Cl)c1)[C@H]1c2cc(N)ccc2CC[C@@H]1N1CCCC1` (racemic), the Ki [1, 5] was 2.2 nM and the Ki [2, 6] was 0.35 nM.

In the case of `CN(C(=O)Cc1ccc(C(F)(F)F)cc1[N+](=O)[O-])[C@@H]1CCCC[C@H]1N1CCCC1.Cl` (racemic), the “% @ 1 μM, diprenorphine” value ([1]; [3H]diprenorphine binding) is reported as 59% @ 1 μM.

`CN(C(=O)Cc1ccc(Cl)c(Cl)c1)[C@H]1c2ccccc2C[C@@H]1N1CCCC1` (racemic) gave a Ki [1, 5] of 12 nM and a Ki [2, 6] of 2 nM.

Compound `CN(C(=O)Cc1ccccc1F)[C@H](CN1CCCC1)c1ccccc1` has a Ki [1, 4] of 4.45 nM.

For `CN(C(=O)Cc1cncc(Br)c1)[C@H](CN1CC[C@H](O)C1)c1ccccc1`, the Ki [1, 4] was 0.44 nM and the “Late Phase Formalin, % @ 300” value ([3]; Table IIIA) was 88% @ 300.

With `CN(C(=O)Cc1cncc(Br)c1)C1CCCCC1N1CCCC1` (stereo not drawn) the Ki [1, 9] was 340 nM.

With `CN(C(=O)Cc1ccc(N)cc1C(F)(F)F)[C@@H]1CCCC[C@H]1N1CCCC1.Cl` (racemic) the “% @ 1 μM, diprenorphine” value ([1]; [3H]diprenorphine binding) was 50% @ 1 μM.

In the case of `CN(C(=O)Cc1ccccn1)[C@H](CN1CC[C@H](O)C1)c1ccccc1`, the Ki [1, 4] is reported as 5.2 nM and the “Late Phase Formalin A50” value ([3]; Table IIIA) is reported as 1.4 mg/kg.

For `CN(C(=O)Cc1ccc(C(F)(F)F)cc1N)[C@@H]1CCCC[C@H]1N1CCCC1.Cl` (racemic), the “% @ 1 μM, diprenorphine” value ([1]; [3H]diprenorphine binding) was 43% @ 1 μM.

For “2-(2-Nitrocinnamyl)-N-methyl-N-[(1S)-1-phenyl-2-(1-pyrrolidinyl) ethyl]acetamide hydrochloride”, the Ki [1, 4] was 164 nM.

With `CN(C(=O)Cc1ccccc1C(F)(F)F)[C@@H]1CCCC[C@H]1N1CCCC1.Cl` (racemic) the “% @ 1 μM, diprenorphine” value ([1]; [3H]diprenorphine binding) was 53% @ 1 μM.

In the case of `CN(C(=O)Cc1cc(Cl)c(Cl)cc1[N+](=O)[O-])[C@H]1c2cc([N+](=O)[O-])ccc2CC[C@@H]1N1CCCC1` (racemic), the Ki [1, 5] is reported as 2.8 nM and the Ki [2, 6] is reported as 0.8 nM.

`CN(C(=O)Cc1cc(Cl)c(Cl)cc1[N+](=O)[O-])[C@@H]1CCCC[C@H]1N1CCCC1` (racemic) showed a Ki [1, 7] of 6.7 nM and a Ki [2, 8] of 1.4 nM.

`CN(C(=O)Cc1cc([N+](=O)[O-])cc(C(F)(F)F)c1)[C@@H]1CCCC[C@H]1N1CCCC1.Cl` (racemic) was tested, and the “% @ 1 μM, diprenorphine” value ([1]; [3H]diprenorphine binding) was 61% @ 1 μM.

With `CN(C(=O)Cc1ccc(C(F)(F)F)cc1)[C@@H]1CCCC[C@H]1N1CCCC1` (racemic) the Ki [2, 8] was 3.75 nM.

— patent US20050020576A1, “Kappa agonist compounds and pharmaceutical formulations thereof” (priority 1996, published 2005)
